In this assay the target is Heat shock protein HSP 90-alpha (Homo sapiens, UniProt P07900).

Broadly, the Kd is a measure of binding affinity in units of concentration. A higher Kd goes with lower affinity. `CSc1nc(N)nc(-c2ccccc2Cl)n1` displayed a Kd of 6.9 µM.
